Laboratory results: patent US20010012631A1, “Plant clonal lines and plants having elevated secondary metabolite levels” (University of Massachusetts Medical Center, a Massachusetts …, priority 1997, published 2001)

Columns and labels:
[1] = system: oregano line 0-1; details: ± SD; for RA: line 0-1, 30d culture on supplemented media (Proline 4 mM, A2C 50 μM, Ornithine 5 mM), mean of 4 extracts; for RA Levels: 30 days (Example 3)
[2] = system: oregano line 0-1; details: ± SD, mean of 4 extracts
[3] = line 0-1, 15d culture on supplemented media (Proline 4 mM, A2C 50 μM, Ornithine 5 mM)
[4] = line 0-1, 30d culture on supplemented media (Proline 4 mM, A2C 50 μM, Ornithine 5 mM)

Structure (SMILES) | RA [1] | RA Levels ([1]; line 0-1, A2C 100 μM) | RA Levels ([1]; line 0-1, A2C 200 μM) | Proline [2, 3] | Proline [2, 4]
O=C(O)C1CCN1 (centres unmarked) [A2C, azetidine-2-carboxylic acid] | 4.28 ± 1.18 mg/g FW | 5.1 ± 0.4 mg/g FW | 5.4 ± 0.4 mg/g FW | 0.91 ± 0.33 μmol/g FW | 0.41 ± 0.17 μmol/g FW
O=C(O)[C@@H]1CCCN1 [Proline] | 3.51 ± 0.34 mg/g FW | – | – | 62.15 ± 9.84 μmol/g FW | 18.34 ± 7.40 μmol/g FW

Where two headings read alike, the source gives them in different places.
